# Binding of CDR-mutated scFvs to a peptide of the spike HR2 region

Antigen: PDVDLGDISGINAS, a 14-residue peptide of the SARS-CoV-2 spike HR2 region.

Ab-14 is the parent antibody, in scFv form: VH, then a (GGGGS)3 linker, then VL. The light chain is unchanged in all variants.
VH: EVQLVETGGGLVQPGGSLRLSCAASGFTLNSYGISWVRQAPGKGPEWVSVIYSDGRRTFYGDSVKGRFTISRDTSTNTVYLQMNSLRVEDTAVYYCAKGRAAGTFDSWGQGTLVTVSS
VL: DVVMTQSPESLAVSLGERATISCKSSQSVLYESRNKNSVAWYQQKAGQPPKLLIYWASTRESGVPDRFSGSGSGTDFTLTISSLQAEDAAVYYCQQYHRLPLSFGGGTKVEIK

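These sequences belong to a second round, designed from the earlier measurements on random variants of the parent. Group labels follow the data file (Ctrl: baseline library sampled from a position-specific scoring matrix, with some repeated check sequences; Rand: our label for a block that the file lists under HC and that is probably the random mutants of the ten best first-round binders; En: ensemble of fine-tuned language models; GP: Gaussian process model; GPLM: also part of the Gaussian process libraries; HC: hill climbing; Gen: genetic algorithm; Gibbs: Gibbs sampling; a sequence that several methods proposed may carry one label only). The scFvs were displayed on barcoded MATa yeast, the peptide on MATalpha yeast. Pairs that bind mate more often; barcode pairs of the diploids are counted by sequencing. A regression on co-assayed BCL2-family reference pairs converts the normalised counts of each replicate to an apparent Kd. The assay was run in six technical replicates.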

Sequences are complete VH domains. Numbers give log10(Kd / nM), so 0 is 1 nM and 3 is 1 µM. Smaller is tighter. An entry "n.d." has no value in the source: the pair was not observed among the diploids in that replicate. This suggests poor binding but is not conclusive. The authors' rule: three or more of the six replicates give a measured affinity, fewer mean a poor binder. Empty control strains, which show no peptide, gave a signal in 1% of pairings with all heavy chain designs; the median was 2.08 and 95% of these signals were weaker than 0.84. No background was subtracted. A sequence measured in both rounds can read differently, since the two assays cover different ranges.

VH,group,log10 Kd (nM) by replicate
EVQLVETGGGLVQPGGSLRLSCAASGFDINEYGVSWVRQAPGKGPEWVSVIYADGMRAAYTDSVKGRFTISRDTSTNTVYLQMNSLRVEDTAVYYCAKGKGAGIALVWGQGTLVTVSS,En_Gibbs,n.d. / n.d. / n.d. / n.d. / n.d. / n.d.
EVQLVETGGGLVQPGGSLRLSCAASQFDLNSYGISWVRQAPGKGPEWVSVIYSDGRRTFYADSVKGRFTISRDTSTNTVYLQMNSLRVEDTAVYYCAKGNAAGTFDSWGQGTLVTVSS,GP_Gibbs,n.d. / n.d. / n.d. / n.d. / n.d. / n.d.
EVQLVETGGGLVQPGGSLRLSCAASGQGLEEYGISWVRQAPGKGPEWVSVIYADGQRNAAADEVKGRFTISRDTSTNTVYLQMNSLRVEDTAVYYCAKGENAGTFDIWGQGTLVTVSS,En_Gibbs,n.d. / n.d. / n.d. / n.d. / n.d. / n.d.
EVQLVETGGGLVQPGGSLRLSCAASGFTLNSYGISWVRQAPGKGPEWVSVIYSDGRRTFYGDSVKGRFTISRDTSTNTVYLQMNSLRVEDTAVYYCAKGENAGTFDSWGQGTLVTVSS,Ctrl,1.73 / n.d. / 1.63 / n.d. / 1.21 / 1.60
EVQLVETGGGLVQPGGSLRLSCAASGFNLNSYGISWVRQAPGKGPEWVSVIYSDGRRTFYGDDVKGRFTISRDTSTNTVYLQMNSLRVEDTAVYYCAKGRAALTFDSWGQGTLVTVSS,Ctrl,n.d. / n.d. / n.d. / n.d. / n.d. / n.d.
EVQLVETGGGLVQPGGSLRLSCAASGFTLNSYGISWVRQAPGKGPEWVSVIYSDGRRTFYGQSVKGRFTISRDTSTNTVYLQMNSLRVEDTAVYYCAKGRAAGRFLSWGQGTLVTVSS,Ctrl,n.d. / n.d. / n.d. / n.d. / n.d. / n.d.
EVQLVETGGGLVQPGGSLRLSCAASGFDLNEYGISWVRQAPGKGPEWVSVIYADGMRTAYADDVKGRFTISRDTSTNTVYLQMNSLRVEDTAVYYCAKGQNAGTFDVWGQGTLVTVSS,En_Gen,0.81 / 0.59 / 0.11 / 0.62 / 0.34 / 0.79
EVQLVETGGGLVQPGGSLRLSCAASGFWLNEYGISWVRQAPGKGPEWVSVIYSDGRRTFYHDSVKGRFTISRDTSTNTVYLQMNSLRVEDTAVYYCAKGRAAGFFDSWGQGTLVTVSS,GP_HC,n.d. / n.d. / n.d. / n.d. / n.d. / n.d.
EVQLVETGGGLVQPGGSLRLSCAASGFELNSYGISWVRQAPGKGPEWVSVIYSDGRRTFYADSVKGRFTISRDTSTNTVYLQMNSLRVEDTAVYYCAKGKEAGTFDTWGQGTLVTVSS,GPLM_Gibbs,-0.71 / 0.03 / 0.43 / -0.88 / 0.38 / -0.07
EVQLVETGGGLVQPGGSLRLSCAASGFNLEEFGISWVRQAPGKGPEWVSVIYADGKRSSVSDSVKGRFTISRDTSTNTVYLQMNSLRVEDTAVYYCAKGQLGNAFDLWGQGTLVTVSS,En_Gibbs,n.d. / n.d. / n.d. / 2.91 / n.d. / n.d.
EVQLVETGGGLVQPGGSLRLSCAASGFDLGEYGISWVRQAPGKGPEWVSVIYADGMRSAYTDDVKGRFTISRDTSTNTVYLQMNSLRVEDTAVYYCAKGAGANIITHWGQGTLVTVSS,En_Gibbs,n.d. / n.d. / n.d. / n.d. / n.d. / n.d.
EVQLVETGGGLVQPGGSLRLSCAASGFDLNEYGISWVRQAPGKGPEWVSVIYADGKRTFYSDSVKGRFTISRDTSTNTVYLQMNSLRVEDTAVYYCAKGQTGGTFDEWGQGTLVTVSS,En_HC,0.04 / -0.38 / -0.42 / -0.17 / -0.38 / -0.06
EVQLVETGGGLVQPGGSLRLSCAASGFDLNEYGISWVRQAPGKGPEWVSVIYADGMRTFYADSVKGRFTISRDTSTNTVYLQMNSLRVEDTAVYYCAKGNLAGTFDVWGQGTLVTVSS,En_HC,-0.26 / -0.39 / -0.52 / -0.66 / -0.53 / -0.31
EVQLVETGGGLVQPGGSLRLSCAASGFVLNSYGISWVRQAPGKGPEWVSVIYADGRRTFYGDSVKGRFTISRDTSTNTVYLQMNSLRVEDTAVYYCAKGTAAGTFDSWGQGTLVTVSS,GP_HC,0.54 / -0.27 / -0.51 / 0.23 / 0.11 / 0.55
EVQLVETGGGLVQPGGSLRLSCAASGFSLNSYGISWVRQAPGKGPEWVSVIYSDGRRTFYGDRVKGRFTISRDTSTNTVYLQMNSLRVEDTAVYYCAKGQIAGTFDSWGQGTLVTVSS,GP_Gibbs,0.59 / 0.46 / 0.77 / 0.39 / 0.60 / 0.64
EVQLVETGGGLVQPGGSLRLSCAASGATINSYGISWVRQAPGKGPEWVSVIYSDGRRTFYGDSVKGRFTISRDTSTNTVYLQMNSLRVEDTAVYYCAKGRAAGTFDWWGQGTLVTVSS,Ctrl,n.d. / n.d. / n.d. / n.d. / n.d. / n.d.
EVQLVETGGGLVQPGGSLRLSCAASGGTLDSYGIGWVRQAPGKGPEWVSVIYSDGRRTFYTISVKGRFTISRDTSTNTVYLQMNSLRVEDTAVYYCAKGRAAQTALSWGQGTLVTVSS,Rand,n.d. / n.d. / n.d. / n.d. / n.d. / n.d.
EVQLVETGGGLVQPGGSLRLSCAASGFGLMEYGISWVRQAPGKGPEWVSVIYADGMRTSYSNSFKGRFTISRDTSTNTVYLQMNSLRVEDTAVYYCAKGALAGTFDEWGQGTLVTVSS,En_Gibbs,n.d. / n.d. / n.d. / 2.04 / n.d. / n.d.
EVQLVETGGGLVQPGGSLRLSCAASGFDLNEYGISWVRQAPGKGPEWVSVIYADGKRTFYSDNVKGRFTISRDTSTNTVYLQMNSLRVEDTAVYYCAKGNVAGTFDIWGQGTLVTVSS,En_HC,-0.35 / -0.46 / -0.57 / -0.84 / -0.74 / -0.56
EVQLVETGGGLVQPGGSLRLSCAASGFDLNEYGISWVRQAPGKGPEWVSVIYADGQRTAYSDNVKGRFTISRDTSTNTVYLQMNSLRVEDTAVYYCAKGEVAGTFDVWGQGTLVTVSS,En_Gen,-0.81 / -0.74 / -0.75 / -0.72 / -0.70 / -0.63
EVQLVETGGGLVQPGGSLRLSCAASGFDLNEYGISWVRQAPGKGPEWVSVIYADGMRTFYADSVKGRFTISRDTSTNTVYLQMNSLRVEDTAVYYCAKGNQAGTFISWGQGTLVTVSS,En_HC,0.97 / 0.07 / 0.41 / 0.39 / -0.14 / 0.12
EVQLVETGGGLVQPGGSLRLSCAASGFDLNEYGISWVRQAPGKGPEWVSVIYSDGRRTFYKDSVKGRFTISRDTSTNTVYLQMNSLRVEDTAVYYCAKGRAAGTFDSWGQGTLVTVSS,GP_HC,n.d. / 1.24 / 1.06 / 0.77 / 1.09 / 1.59
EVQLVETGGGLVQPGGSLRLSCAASGFDLDQYGISWVRQAPGKGPEWVSVIYADGMRSVYADAVKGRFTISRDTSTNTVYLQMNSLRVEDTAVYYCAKGHEGGIFLVWGQGTLVTVSS,En_Gibbs,n.d. / n.d. / n.d. / n.d. / n.d. / n.d.
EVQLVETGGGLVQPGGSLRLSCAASGFTWNSYGISWVRQAPGKGPEWVSVIYSCGRRTFYDDSVKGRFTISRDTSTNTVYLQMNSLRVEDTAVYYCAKNQLAGTFDSWGQGTLVTVSS,Rand,n.d. / n.d. / n.d. / n.d. / n.d. / n.d.
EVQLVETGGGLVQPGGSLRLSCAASGFQLDEYGISWVRQAPGKGPEWVSVIYADGKRTAYSKNVKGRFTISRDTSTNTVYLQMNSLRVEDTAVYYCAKGYIDFKLIGWGQGTLVTVSS,En_Gibbs,3.00 / n.d. / n.d. / n.d. / n.d. / n.d.

Extract of 4 entries:

VH	group	log10 Kd (nM) by replicate
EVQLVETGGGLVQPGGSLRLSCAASGFDLNEYGISWVRQAPGKGPEWVSVIYSDGRRTFYKDSVKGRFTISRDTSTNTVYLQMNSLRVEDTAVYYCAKGRAAGTFDSWGQGTLVTVSS	GP_HC	n.d. / 1.24 / 1.06 / 0.77 / 1.09 / 1.59
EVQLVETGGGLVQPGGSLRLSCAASGFNLNSYGISWVRQAPGKGPEWVSVIYSDGRRTFYGDDVKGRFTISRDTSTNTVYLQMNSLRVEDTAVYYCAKGRAALTFDSWGQGTLVTVSS	Ctrl	n.d. / n.d. / n.d. / n.d. / n.d. / n.d.
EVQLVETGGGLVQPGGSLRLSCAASGFDLNEYGISWVRQAPGKGPEWVSVIYADGKRTFYSDSVKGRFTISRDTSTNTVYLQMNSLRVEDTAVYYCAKGQTGGTFDEWGQGTLVTVSS	En_HC	0.04 / -0.38 / -0.42 / -0.17 / -0.38 / -0.06
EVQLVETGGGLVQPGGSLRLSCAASGFDLNEYGISWVRQAPGKGPEWVSVIYADGKRTFYSDNVKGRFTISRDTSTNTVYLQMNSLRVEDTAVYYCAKGNVAGTFDIWGQGTLVTVSS	En_HC	-0.35 / -0.46 / -0.57 / -0.84 / -0.74 / -0.56

Source: Li et al. 2023 (doi:10.1038/s41467-023-39022-2), MIT Lincoln Laboratory and A-Alpha Bio; data file from the FLAb repository.